# Measurements as given in patent US20040253206A1 (priority 1999, published 2004).
# Details: deionized water, ultrasonicated 15 minutes, filtered, lyophilized
substance,measurement,value
2′-Succinamidyl-PEG2-amine-paclitaxel trifluoroacetate [Compound 3],water solubility (by mass),7.4 mg/mL
